What was measured:
Test in all cases: cell-based or functional assay
[1] = target: human IL-13 (human) (UniProt P35225)
[2] = target: EGFR expressed on the surface of A431 cells (UniProt P00533)
[3] = target: human TNF-α (human) (UniProt P01375)

IL-13 cell-based neutralisation assay (HEK Blue-STAT6 reporter), EC50 [1]	EGFR kinase assay (A431 cells), potency [2]	MRC-5/TNF assay (IL-8 release), potency [3]	Substance
1.65 nM	9.03 nM		DMS4029 (bispecific antibody)
	39.1 nM	0.003 nM	dual targeting anti-TNF/anti-EGFR mAbdAb (Example 10) (bispecific antibody)

Source: patent publication US20090148905A1
